From PubChem BioAssay AID588493 (Sanford-Burnham Center for Chemical Genomics, 2011)
The entries are a selection whose mix differs from that of the whole data set. The source made the active and inactive calls.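 How the source made its calls: active means inhibition at 20 µM, scaled to each plate's controls, above about 33% (limit read from the data); inactive means the rest.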

Sequences of proteins named here, by UniProt entry; tags and fusion partners are left off.
UniProt O00487, whole entry, looked up: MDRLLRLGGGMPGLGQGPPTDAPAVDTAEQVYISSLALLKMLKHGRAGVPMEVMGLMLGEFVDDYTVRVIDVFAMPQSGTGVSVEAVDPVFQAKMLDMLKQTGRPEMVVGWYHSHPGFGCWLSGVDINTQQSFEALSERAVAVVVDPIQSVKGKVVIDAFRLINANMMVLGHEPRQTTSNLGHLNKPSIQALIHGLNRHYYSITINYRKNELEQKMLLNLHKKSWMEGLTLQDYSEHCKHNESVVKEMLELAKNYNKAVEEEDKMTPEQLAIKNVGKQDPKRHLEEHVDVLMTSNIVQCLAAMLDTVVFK

Molecular target: 26S proteasome non-ATPase regulatory subunit 14 (Homo sapiens) (UniProt O00487)
Test: inhibition of 26S proteasome subunit Rpn11 – biochemical, fluorescence polarization, uHTS, primary screen (AID 588493)
Conditions: human 26S proteasome, Ub4-pepOG fluorescence polarization; at 20 µM; stronger effect = higher value; 20S core pre-blocked with epoxomicin

Compound | inhibition
O=P1(N(CCCl)CCCl)OCCC2CCCCN21 (centres undefined) | inactive: -3.4%
O=C(NC1CCS(=O)(=O)C1)NP(=S)(Oc1ccccc1)Oc1ccccc1 (centres undefined) | inactive: -0.2%
CCNC(=S)/N=C(\N)N[N+](=O)[O-] | inactive: -2.5%
c1ccc(-c2nn[nH]n2)c(-c2nn[nH]n2)c1 | inactive: 1.8%
Cc1ccc(NP(=O)(Oc2cccc(C)c2)Oc2cccc(C)c2)nc1 | inactive: 1.1%
CC(NC(=O)COC(=O)C(O)(c1ccccc1)c1ccccc1)c1ccccc1 (centres undefined) | inactive: -3.5%
Cc1ccccc1OP(=O)(Nc1ccccn1)Oc1ccccc1C | inactive: -8.3%
O=c1c2cc([N+](=O)[O-])ccc2[nH]c2c([N+](=O)[O-])cc([N+](=O)[O-])cc12 | inactive: 18.5%
CN(C)C(=O)Oc1noc2ccccc12 | inactive: -0.8%
COC(=O)c1cc2c(s1)N=C(c1ccccc1)N(C)P2(=O)N1CCOCC1 (centres undefined) | inactive: 2.2%
Cc1ccc(OP(=O)(Nc2ccccn2)Oc2ccc(C)cc2)cc1 | inactive: -1%
CC(=O)NC(SC(=S)N(CC(C)C)CC(C)C)C(Cl)(Cl)Cl (centres undefined) | inactive: 6.7%
O=C(OC1CN2CCC1CC2)c1ccccc1 (centres undefined) | inactive: 7.2%
CCC(=O)N1C2C3N(C(=O)CC)C1C1N(C(=O)CC)C(C(N1C(=O)CC)N3C(=O)CC)N2C(=O)CC | inactive: 7.7%
CCc1cc(O)c([N+](=O)[O-])c(C)c1[N+](=O)[O-] | inactive: -2%
CC(C)(C)C(=O)NC(Sc1ccccc1)C(Cl)(Cl)Cl (centres undefined) | inactive: -1.8%
O=P1(Nc2nc3ccc(Cl)cc3s2)COc2ccccc2O1 (centres undefined) | inactive: -1.6%
CCOc1ccc(C2=NCC(CBr)S2)cc1 (centres undefined) | inactive: -7.9%
CC(=O)Nc1ccc([As](=O)(O)O)c(O)c1 | inactive: 7.2%
CC(=O)Nc1ccc(Oc2c([N+](=O)[O-])cc([N+](=O)[O-])cc2[N+](=O)[O-])cc1 | inactive: -0.9%
CC(=O)c1ccc(N2CC2c2ccncc2)cc1 (centres undefined) | inactive: -1.9%
N#C/C(=C\c1ccc(N(CCBr)CCBr)cc1)C(N)=O | inactive: 3.5%
COC(=O)C1(C)COP(=O)(NCc2ccccc2)OC1 (centres undefined) | inactive: 1.3%
Cc1ccccc1CN(C)C(=O)COC(=O)C(O)(c1ccccc1)c1ccccc1 | inactive: -2.3%
C[C@H]1OP(=O)(Oc2ccccc2)C[C@@H]2O[C@@H]21 (some centres undefined) | inactive: -2.1%
C[C@@H]1C=CCP(=O)(Oc2ccccc2)O1 (some centres undefined) | inactive: 2%

Compound | inhibition
c1nnnn1CCn1cnnn1 | inactive: -6.8%
O=P(Nc1nccs1)(c1ccccc1)c1ccccc1 | inactive: -1.2%
CC(C)C(=O)NC(Sc1ccccc1)C(Cl)(Cl)Cl (centres undefined) | inactive: -0.6%
O=P(Nc1nc2ccccc2s1)(c1ccccc1)c1ccccc1 | inactive: 0%
C[C@H]1OP(=O)(Oc2ccccc2)[C@H](O)[C@H](O)[C@H]1N=[N+]=[N-] (some centres undefined) | inactive: -1.6%
COc1ccc(N)c([N+](=O)[O-])c1[N+](=O)[O-] | inactive: -4.1%
Nc1ccc(CCCCOc2ccccc2)cc1 | inactive: -1.9%
CN(C)C1(CNC(=O)c2ccc(Cl)c(S(N)(=O)=O)c2)CCCCC1 | inactive: -5%
O=P(Nc1ccccn1)(c1ccc(Br)cc1)c1ccc(Br)cc1 | inactive: -0.7%
C(Cc1nn[nH]n1)Cc1nn[nH]n1 | inactive: -4.6%
Nc1ccc([As](=O)(O)c2ccc([N+](=O)[O-])cc2)cc1 | inactive: 2.2%
O=C(OC1CN2CCC1CC2)c1cccc(Cl)c1 (centres undefined) | inactive: 3.6%
O=[N+]([O-])c1ncn(CCn2cnc([N+](=O)[O-])n2)n1 | inactive: 4.1%
CC(=O)NC(SC(=S)N(C)C)C(Cl)(Cl)Cl (centres undefined) | inactive: -1.7%
O=[N+]([O-])c1ccc(O)c(/C=N/Nc2ccc([N+](=O)[O-])cc2[N+](=O)[O-])c1 | inactive: -27.8%
O=[As](O)(c1ccccc1)c1ccc(O)cc1 | inactive: -6%
O=C(Nc1cc([As](=O)(O)O)ccc1O)c1ccccc1 | inactive: -0.8%
O=P1(N(CCCl)CCCl)OCCCS1 (centres undefined) | inactive: 1.7%
COC(=O)C1(C)COP(=O)(Nc2ccccc2)OC1 (centres undefined) | inactive: -3.3%
O=[N+]([O-])c1cccc(NC2=NCC(CBr)S2)c1 (centres undefined) | inactive: 0.8%
O=C(O)CNc1ccc([As](=O)(O)O)cc1 | inactive: 6.4%
CC(C)(C)C(=O)NC(Sc1ccncn1)C(Cl)(Cl)Cl (centres undefined) | inactive: -5.6%
O=[N+]([O-])c1ncn(CCn2ncnc2[N+](=O)[O-])n1 | inactive: 0.6%
CC(=O)N1C2C3N(C(C)=O)C1C1N(C(C)=O)C(C(N1C(C)=O)N3C(C)=O)N2C(C)=O | inactive: -1.4%
O=[N+]([O-])c1cccc2n[nH]nc12 | inactive: -1.9%
Cc1ccc(NP(=O)(Oc2ccccc2)Oc2ccccc2)nc1 | inactive: -3.4%

Compound | inhibition
O=[N+]([O-])c1cc([N+](=O)[O-])c(CCNc2ccccc2)c([N+](=O)[O-])c1 | inactive: 4.5%
CCc1nc2c(n1)c1c(non1O)c1c2no[n+]1[O-] | inactive: 4%
COc1ccc(C2=NCC(CBr)S2)cc1 (centres undefined) | inactive: 1.5%
CC(C)c1nc(Nc2ccccc2)n(P(=O)(N(C)C)N(C)C)n1 | inactive: -2.7%
CC(C)=N/N=C(\N)N[N+](=O)[O-] | inactive: -4.5%
CN(C)C(=O)OCCc1n(C)cc[n+]1C | inactive: -4.5%
CC1CCN(C(=O)Oc2c(Cl)cc(Cl)c3cccnc23)CC1 | inactive: 0.7%
c1cc(-c2nn[nH]n2)ccc1-c1nn[nH]n1 | inactive: -3.4%
Nc1ccc([As](=O)(O)c2ccc(N)cc2)cc1 | inactive: -6.5%
C[N+]1=C2C=CC=CC=C2SC12C([N+](=O)[O-])=CC([N+](=O)[O-])=C[C-]2[N+](=O)[O-] (centres undefined) | inactive: -2.7%
CCN(/C(=N/P(=O)(N1CCOCC1)N1CCOCC1)N1CCOCC1)c1ccc(OC)cc1 | inactive: 9%
COc1ccccc1OP(=O)(Nc1ccc(C)cn1)Oc1ccccc1OC | inactive: -6.2%
Cc1ccc(OP(=O)(Nc2nccs2)Oc2ccc(C)cc2)cc1 | inactive: 2.4%
CN1CCCC(OC(=O)C(c2ccccc2)c2ccccc2)C1 (centres undefined) | inactive: -10.4%
Clc1ccc(Cl)c(NC2=NCC(CBr)S2)c1 (centres undefined) | inactive: -8.7%
NC(=O)c1cc([N+](=O)[O-])cc([N+](=O)[O-])c1N | inactive: 0.3%
CN(C(=O)Cc1ccc(Cl)c(Cl)c1)[C@H]1CCCC[C@H]1N1CCCC1 | inactive: -4.8%
Cc1ccc(N/C(=N/P(=O)(N2CCOCC2)N2CCOCC2)N2CCOCC2)cc1 | inactive: -4.8%
O=[N+]([O-])C1C(O)C(O)C([N+](=O)[O-])C(O)C1O (centres undefined) | inactive: -8.6%
Nc1cc(N)c2nonc2c1[N+](=O)[O-] | inactive: 2.7%
CC(C)CC(=O)NC(Sc1ccc(Cl)cc1)C(Cl)(Cl)Cl (centres undefined) | inactive: 0.6%
Oc1ccccc1CNc1ccccn1 | inactive: -0.6%
O=C(NC(Sc1ccncn1)C(Cl)(Cl)Cl)c1ccccc1 (centres undefined) | inactive: -4.6%
Cc1cc(SC(NC(=O)c2ccc(F)cc2)C(Cl)(Cl)Cl)ncn1 (centres undefined) | inactive: -3%
CCOP(=O)(Nc1ccccc1)OCC | inactive: 4.4%
CN(C(=O)Cc1ccc(Cl)c(Cl)c1)[C@H]1CCCC[C@@H]1N1CCCC1 | inactive: -3.7%

Compound | inhibition
Cc1ccc(NP(=O)(Oc2ccccc2F)Oc2ccccc2F)nc1 | inactive: -4.8%
CC(=O)Nc1ccc([As](=O)(O)O)cc1 | inactive: -4.1%
O=C(O)c1ccccc1[As](=O)(O)O | inactive: -8.1%
CCCC1OP(N)(=O)OCC1CC (centres undefined) | inactive: 0.8%
O=P(Nc1nc2ccc(Cl)cc2s1)(c1ccccc1)c1ccccc1 | inactive: 2.5%
CN(C)P(=O)(N(C)C)n1c(Nc2ccccc2)nnc1-c1ccccc1 | inactive: 6.5%
CCN(N=Nc1nonc1N)c1nonc1N | inactive: 5.6%
Nc1cccc2ccc([As](=O)(O)O)cc12 | inactive: -4.6%
Cc1ccc2nc3c(c(C)c2c1)CC(C(Cl)Cl)S3 (centres undefined) | inactive: 8.2%
Cc1ccc(OP(=O)(Nc2ccc([N+](=O)[O-])cn2)Oc2ccc(C)cc2)cc1 | inactive: 4.4%
C[As](=O)(O)c1cccc(C(=O)O)c1 | inactive: -2.4%
O=[As](O)(c1ccc(O)cc1)c1ccccc1O | inactive: -1.8%
O=[N+]([O-])c1ccc(-c2cc([N+](=O)[O-])c(O)c([N+](=O)[O-])c2)cc1 | inactive: 1.2%
COc1cc(C(=O)NCC2(N3CCOCC3)CCCCC2)ccc1OCC(C)C | inactive: -3.8%
CC(C)NC(=O)NP(=O)(Oc1ccccc1)Oc1ccccc1 | inactive: -8.9%
O=C(OC1CN2CCC1CC2)c1cccc2[nH]cnc12 (centres undefined) | inactive: 0.7%
CCN(CC)C(=S)SC(NC=O)C(Cl)(Cl)Cl (centres undefined) | inactive: 0.4%
O=[N+]([O-])c1cc([N+](=O)[O-])c(-c2ccn[nH]2)s1 | inactive: 1.9%
COC(=O)C1(C)COP(=O)(N2CCCCCC2)OC1 (centres undefined) | inactive: -3.6%
CC(C)c1ccc(OP(=O)(Nc2ccccn2)Oc2ccccc2F)cc1 (centres undefined) | inactive: -5.1%
ClCCSc1nnc(-c2cccnc2)o1 | inactive: 0.2%
COc1ccc2nc(NP(=O)(c3ccccc3)c3ccccc3)sc2c1 | inactive: 0.8%
COc1cc(I)ccc1[As](=O)(O)O | inactive: -4%
O=P1(N(CCCl)CCCl)Nc2ccccc2N1 | inactive: -4.1%
O=P1(N(CCCl)CCCl)OCCCN1CCCl (centres undefined) | inactive: 1%
O=C(OC1CN2CCC1CC2)C12CC3CC(CC(C3)C1)C2 (centres undefined) | inactive: -10.8%
